Earlier results in patent publication EP4052553A1, “AGRICHEMICAL COMPOSITION FOR TREATING SEEDS AND USE THEREOF” (priority 2019, dated 2021).

Settings: distilled water at 20°C

Substance: oxadiargyl
- aqueous solubility: 0.37 ppm
